{"source": "patent US9790262B2", "about": "“Compositions comprising glucagon analogs and methods of making and using the same” (LONGEVITY BIOTECH, INC., priority 2011, dated 2017)", "assay": "Stability in human liver microsomes", "procedure": "Human liver microsomes were prepared by Absorption Systems. A reaction mixture, minus NADPH, was prepared as described below. […] In parallel, a […]. The test compound was added into the reaction mixture (0.5 mg/mL human liver microsomes; 100 mM potassium phosphate; 5 mM Magnesium chloride) at a final concentration of 1 μM. An aliquot of the reaction mixture (without cofactor) was incubated in a shaking water bath at 37° C. for 3 minutes. […] The samples were then mixed and centrifuged to precipitate microsomal proteins. […] A thermo BDS Hypersil C18 column (30×2.0 mm; 3 μm) was used for chromatography at 300 μL/minute with an aqueous reservoir of 90% water and 10% buffer and an organic reservoir of 90% acetonitrile with 10% buffer (each 25 mM ammonium formate buffer at pH of 3.5). Test compound samples were analyzed by orbitrap. The peak area response ratio to internal standard (PARR) of the compounds at 10, 20, 30, and 60 minutes was compared to the PARR at time 0 to determine the percent of test compound remaining at each timepoint. After the final time point, fluorimetry is used to confirm the addition of NADPH to the reaction mixture. Half-life was normalized of control using internal acceptance criteria. […]\nIntrinsic clearance (CLint) was calculated based upon CLint=k/P, where k is the elimination rate constant and P is the protein concentration in the incubation."}
{"smiles": "C[C@]12CC[C@H]3[C@@H](CCC4=CC(=O)CC[C@@]43C)[C@@H]1CC[C@@H]2O", "note": "[Testosterone, testosterone]", "values": [{"measurement": "half-life at 1 μM", "result": 13.6, "unit": "min"}]}
